{"source": "patent US10131664B2", "about": "(Celgene Quanticel Research, Inc., priority 2013, dated 2018)", "key": {"full-length human LSD1": {"target": "full-length human LSD1 (Homo sapiens (Human), UniProt O60341)", "assay": "In vitro enzyme inhibition assay LSD-1 (TR-FRET)", "format": "biochemical", "settings": "read-out: LSD1 IC50, 0.1 nM LSD1, 50 nM H3K4me1-biotin peptide, 2 μM FAD, pH7.3"}, "THP-1 (AML) cells": {"tested_on": "THP-1 (AML) cells", "assay": "LSD1 CD11b cellular assay (flow cytometry)", "settings": "read-out: Cellular IC50, CD11b expression in THP-1 (AML) cells, 4 days incubation"}}, "data": [{"smiles": "Cn1cc2nc(-c3cnc(N4CCC(N)CC4)nc3-c3ccc(C#N)cc3)ccc2n1", "values": [{"measurement": "IC50", "setting": "full-length human LSD1", "result": "< 100", "unit": "nM"}, {"measurement": "IC50", "setting": "THP-1 (AML) cells", "result": "100 to 1000", "unit": "nM"}]}]}
